Data taken from US10413564B2, “Compositions and methods for combating drug-resistant cancers” (NATIONAL YANG-MING UNIVERSITY, priority 2016, dated 2019).

Tests used:
[1] = tested on: FaDu-Ctx^R and FaDu-control sublines; assay: In vivo validation of cetuximab resistance, FaDu-Ctx^R and FaDu-control xenografts; details: sublines inoculated into nude mice again and treated with cetuximab
Excerpt: FIGS. 2(A)-(B). (A) illustrates the generation of in vivo-selected FaDu-Ctx^R cells. […] The above sublines were inoculated into the subcutaneous area of nude mice and treated with cetuximab (ctx), and FaDu-ctrl treated with PBS was applied as a control. Left, the relative tumor volume of the mice. Right, a photo for showing the xenotransplanted tumors. Scale bar=1 cm.
(§1) A cetuximab-resistant HNSCC subline (named FaDu-Ctx^R) was established by in vivo selection. 1×10^5 wild-type FaDu cells per mouse were inoculated into the subcutaneous area of Balb/c nude mice (n=4). Two mice were treated with PBS and two were treated with cetuxmab once a week. […] After 10 weeks, the xenograpfted tumor was harvested for primary culture. […] The resistance of FaDu-Cxt^R was confirmed in vivo and in vitro. Subsequently, these two sublines were inoculated into nude mice again and treated with cetuximab.

wild-type FaDu cells = assay: Wild-type FaDu subcutaneous xenograft in nude mice (in vivo selection); parameters: species or system Balb/c nude mice; details: two mice treated with cetuximab once a week
Method: as §1

OECM1-Ctx^R cells = assay: Growth inhibition of the cetuximab-resistant subline OECM1-Ctx^R; type: cell-based, human; details: OECM1-Ctx^R subline in comparison with OECM1 parental cells, growth curve
Method: (§2) After 24 h treatment, the medium was removed.

OECM1 cells = assay: Cell viability (MTT) assay, OECM1 parental cells; type: cell-based, human; details: cetuximab on OECM1 parental cells
Method: as §2

Substance: cetuximab
- persistence of tumors under cetuximab [1]: persistence of tumors was only shown in FaDu-Ctx^R but not in FaDu-control
- tumor response of wild-type FaDu xenografts (wild-type FaDu cells): total tumor shrinkage wad noted in one, and another mouse showed persistent tumor growth
- inhibition rate by cetuximab (OECM1-Ctx^R cells): lower inhibition rate
- IC50 of OECM1 (OECM1 cells): 200 µg/mL
